Target: PIP5K1B (Homo sapiens, UniProt O14986)
Test: cell-free kinase assay (Thermo Fisher SelectScreen, ADP detection), 10-point dose response; […] inhibition at […]

Amino acid sequences for entries named in this document (tags omitted).
UniProt O14986, whole entry: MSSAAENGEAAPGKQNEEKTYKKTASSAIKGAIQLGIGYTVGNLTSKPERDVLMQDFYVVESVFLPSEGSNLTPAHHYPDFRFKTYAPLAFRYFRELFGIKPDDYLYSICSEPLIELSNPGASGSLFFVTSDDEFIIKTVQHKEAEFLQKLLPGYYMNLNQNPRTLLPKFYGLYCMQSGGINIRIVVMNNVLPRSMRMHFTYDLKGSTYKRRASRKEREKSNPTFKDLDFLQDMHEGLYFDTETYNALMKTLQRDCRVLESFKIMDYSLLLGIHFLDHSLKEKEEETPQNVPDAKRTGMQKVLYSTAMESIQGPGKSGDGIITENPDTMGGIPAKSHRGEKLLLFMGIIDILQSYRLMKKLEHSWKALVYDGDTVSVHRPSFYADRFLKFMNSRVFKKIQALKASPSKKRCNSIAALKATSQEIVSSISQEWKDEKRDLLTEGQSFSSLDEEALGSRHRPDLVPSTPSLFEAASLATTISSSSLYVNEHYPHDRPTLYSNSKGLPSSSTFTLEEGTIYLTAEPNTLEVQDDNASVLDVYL

`c1ccc(Nc2nc(Nc3ccc(-c4nc5ccccc5[nH]4)cc3)nc(N3CCOCC3)n2)cc1` showed an IC50 of 239 nM.

Work on `c1ccc(CNc2nc(Nc3ccc(-c4nc5ccccc5[nH]4)cc3)nc(N3CCOCC3)n2)cc1` yielded an IC50 of 691 nM.

Source: publication PMC13193874, “Targeting PIP5K ameliorates hepatic cancer by inhibiting PI3K/AKT and the autophagy mechanism and enhancing ROS-mediated apoptosis” (Frontiers in Pharmacology, 2026)
